## AlphaSeq binding of Ab-14 light chain variants to a spike HR2 peptide

The target is the same throughout: PDVDLGDISGINAS, from the HR2 region of SARS-CoV-2 spike.

Ab-14 is the parent antibody, in scFv form: VH, then a 15-residue (Gly4Ser)3 linker, then VL. The heavy chain is unchanged in all variants.
VH: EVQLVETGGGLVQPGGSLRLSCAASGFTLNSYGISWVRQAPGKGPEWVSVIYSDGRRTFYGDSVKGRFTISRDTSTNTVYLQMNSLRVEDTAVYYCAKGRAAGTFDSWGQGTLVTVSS
VL: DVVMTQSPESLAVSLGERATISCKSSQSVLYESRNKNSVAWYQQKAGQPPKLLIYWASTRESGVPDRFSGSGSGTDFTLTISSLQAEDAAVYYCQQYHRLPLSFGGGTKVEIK

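Phage display of a naive human antibody library on the peptide gave the parent. This is the validation round: designs drawn from the data on random variants, tested in the same kind of assay. Group labels follow the data file (Ctrl: baseline library sampled from a position-specific scoring matrix, with some repeated check sequences; Rand: our label for a block that the file lists under HC and that is probably the random mutants of the ten best first-round binders; GP: Gaussian process model; HC: hill climbing; Gen: genetic algorithm; Gibbs: Gibbs sampling; a sequence that several methods proposed may carry one label only). Affinity was read by AlphaSeq, a pooled yeast mating assay with surface-displayed partners. Binding brings cells together so that they mate, and sequencing counts the barcode pairs among the diploids. Each replicate has its own calibration line, from reference interactions of the BCL2 family. Mating was done six times.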

Variants are written as CDR1, CDR2 and CDR3 of the light chain (limits as in the source). Parent: KSSQSVLYESRNKNSVA, WASTRES, QQYHRLPLS.
This list holds designs with at most six substitutions.
Numbers give log10(Kd / nM), so 0 is 1 nM and 3 is 1 µM. Smaller is tighter.
Averages over replicates are reported, and they cover detected replicates only.
An entry "nd" has no value in the source: the pair was not observed among the diploids in any replicate. This suggests poor binding but is not conclusive.
The range of this assay differs from that of the first round, and the authors advise against merging the two.
The authors averaged sequences with at least three values out of six and counted those with two or fewer as poor binders.
The parent sequence was in this pool as ten entries: three were never detected, three once, and four in most replicates, with averages from 0.34 to 2.37.
Three control strains display no target. For all light chain designs, 4% of the pairings with them gave a signal, with a median of 2.64 and one signal in twenty below 1.59, so weak values seen in few replicates may be background. Also given: how often the same scFv was detected with the empty control strains.

The variant KSSQSEPYESRNKNSVA / EASTRES / QQYHRLPLS [GP_Gen] showed 0.26 (6 of 6 replicates; controls 0 of 18). The variant KSSISYAYESRNKNSVA / AASTRES / QQYHRLPLS [GP_HC] gave 0.72 (6 of 6 replicates; controls 0 of 18). With KVQQSVLYESRNKNAVA / NASTRES / QQYHRLPLS [GP_Gen] the result was -0.29 (6 of 6 replicates; controls 3 of 18). For HMSQSVLYESRNKNSIA / WASTRES / QQYHRLPLS [Ctrl], the assay gave 1.18 (5 of 6 replicates; controls 0 of 18). The variant KLSQSDLYESRNKNSVA / NASTRMQ / QQYHRLPLS [GP_Gen] showed -0.14 (6 of 6 replicates; controls 0 of 18). The variant KSSWSVLYESVNKNGVA / WASTRED / QQYHRLPLS [Ctrl] showed nd (0 of 6 replicates; controls 0 of 18). For KLPQSVEYESRNKNSVA / HASTRES / QQYHRLPLS [GP_Gen], the assay gave 0.24 (6 of 6 replicates; controls 1 of 18).

The variant KLSQSVLYEQRNKNSVA / NASQRLS / QQYHRLPLS [GP_Gen] showed 0.05 (6 of 6 replicates; controls 1 of 18). The variant FLSQSYLYESRNKNSVA / NASTRES / QQYHRLPLS [GP_Gen] showed 0.17 (6 of 6 replicates; controls 0 of 18). The variant KLPQSMQYESRNKNSVA / SASTRES / QQYHRLPLS [GP_Gibbs] showed -0.11 (6 of 6 replicates; controls 0 of 18). The variant KLSQSHGYESRNKNSVA / NASTRES / QQYHRLPLS [GP_Gen] showed -0.04 (6 of 6 replicates; controls 0 of 18). The variant KLSQSQLYESRNKNSVA / NASTRES / QDYHRLPLS [GP_Gen] showed -0.07 (6 of 6 replicates; controls 0 of 18). The variant KLEFSDLYESRNKNSVA / EASTRES / QQYHRLPLS [GP_Gibbs] showed 1.77 (6 of 6 replicates; controls 1 of 18). With KSQQSVLYESENKNSVA / WASTREN / QQYHRLPLS [Ctrl] the result was 1.89 (4 of 6 replicates; controls 0 of 18).

The variant KSSQSFLYESRNFNNVA / GASTRES / QQYHRLPLS [GP_HC] gave 0.02 (6 of 6 replicates; controls 2 of 18). The variant KSSISYLYESMNKNSVA / EGSTRES / QQYHRLPLS [GP_HC] showed -0.14 (6 of 6 replicates; controls 0 of 18). For KLQQSFLYESRNKNSVA / NASTRCS / QQYHRLPLS [GP_Gen], the assay gave -0.04 (6 of 6 replicates; controls 2 of 18). The variant KSSQSVMGEQRNKNSVA / DASTRES / QQYHRLPLS [GP_HC] showed -0.15 (6 of 6 replicates; controls 0 of 18). For KLPFSCLYESRNKNSVA / MASTRCS / QQYHRLPLS [GP_Gibbs], the assay gave 0.78 (6 of 6 replicates; controls 1 of 18). For KSSQSVLYNSRNKNSVA / SASTRES / QQYHRLPLS [Ctrl], the assay gave 1.24 (6 of 6 replicates; controls 0 of 18). For KSSQSKLGESRNKNSVA / WASTRES / QQYHRLPLS [Ctrl], the assay gave 3.04 (1 of 6 replicates; controls 0 of 18).

For KSSQSVLYESRNKNSVA / AASTREV / QQYHRLPLS [Ctrl], the assay gave 0.57 (6 of 6 replicates; controls 0 of 18). With KVSQSWQYESRNKQSVA / HASQRES / QQYHRLPLS [GP_Gibbs] the result was 0.52 (6 of 6 replicates; controls 2 of 18). With KNSQSVLYESPPKNSHA / KASTRPS / QQYHRLPLS [Ctrl] the result was nd (0 of 6 replicates; controls 0 of 18). For LSSRWVLYESRNKNSVA / RASTRES / QQYHRLPLS [Ctrl], the assay gave 0.74 (1 of 6 replicates; controls 1 of 18). With KSSQSVLYEGRNKNSVA / WASTRWS / QQYHRLPLE [Ctrl] the result was nd (0 of 6 replicates; controls 1 of 18). The variant KISQSVLMESRNANSVA / DASTRES / QQYHRLPLS [GP_HC] showed 0.05 (6 of 6 replicates; controls 0 of 18). The variant KSSISYPYESRNKNIVA / EYSTRES / QQYHRLPLS [Rand] showed 1.73 (5 of 6 replicates; controls 0 of 18).

With KSSQSVLVESRNKNNVA / SASTRES / QQYHRLPAS [Ctrl] the result was 1.53 (2 of 6 replicates; controls 0 of 18). For KSGGGFLYESRNKNSVA / GASMRES / QQYHRLPLS [GP_Gibbs], the assay gave 0.70 (6 of 6 replicates; controls 0 of 18). For KSSQSWLYESRNKNSVA / WASTHES / QQYHRLPLS [Ctrl], the assay gave nd (0 of 6 replicates; controls 0 of 18). For YSMQSVLYECRNKNSVA / NASTRES / QQYHREPLS [Ctrl], the assay gave 3.32 (1 of 6 replicates; controls 0 of 18). For KSSQSWLAESRNKNSVW / WASTRES / QQYHRLPLS [Ctrl], the assay gave nd (0 of 6 replicates; controls 0 of 18). With KSSPSYLYPSRNENSVA / EASTREQ / QQYHRLPLS [GP_HC] the result was 0.16 (6 of 6 replicates; controls 0 of 18). The variant KLQQSQLYESRNKNSVA / QASQRES / QQYHRLPLS [GP_Gen] showed -0.09 (6 of 6 replicates; controls 1 of 18).

Excerpt, the first 5 entries:

For KSSQSEPYESRNKNSVA / EASTRES / QQYHRLPLS [GP_Gen], the assay gave 0.26 (6 of 6 replicates; controls 0 of 18).
For KSSISYAYESRNKNSVA / AASTRES / QQYHRLPLS [GP_HC], the assay gave 0.72 (6 of 6 replicates; controls 0 of 18).
For KVQQSVLYESRNKNAVA / NASTRES / QQYHRLPLS [GP_Gen], the assay gave -0.29 (6 of 6 replicates; controls 3 of 18).
For HMSQSVLYESRNKNSIA / WASTRES / QQYHRLPLS [Ctrl], the assay gave 1.18 (5 of 6 replicates; controls 0 of 18).
For KLSQSDLYESRNKNSVA / NASTRMQ / QQYHRLPLS [GP_Gen], the assay gave -0.14 (6 of 6 replicates; controls 0 of 18).

Data: MIT Lincoln Laboratory AlphaSeq set, Li et al. 2023, doi:10.1038/s41467-023-39022-2, as distributed in FLAb.